Earlier results on one compound are cited in patent US20110110891A1, “Methods of Treating Hepatitis C Virus Infection” (priority 2008, published 2011).

Chains of the proteins cited; added tags and fusions are not shown.
UniProt P28482, whole entry, species assumed: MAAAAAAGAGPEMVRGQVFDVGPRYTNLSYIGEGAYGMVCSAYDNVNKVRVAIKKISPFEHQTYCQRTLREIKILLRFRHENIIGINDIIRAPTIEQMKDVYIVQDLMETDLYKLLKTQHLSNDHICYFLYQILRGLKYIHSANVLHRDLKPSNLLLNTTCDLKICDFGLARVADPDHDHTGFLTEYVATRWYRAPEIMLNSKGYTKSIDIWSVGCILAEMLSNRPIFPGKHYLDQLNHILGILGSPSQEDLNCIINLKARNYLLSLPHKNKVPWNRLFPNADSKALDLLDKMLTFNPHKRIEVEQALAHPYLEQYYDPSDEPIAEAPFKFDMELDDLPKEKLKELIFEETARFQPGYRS

Structures are written as SMILES.

The data set deals with ERK2 (Homo sapiens, UniProt P28482). The settings on record: read-out: K(i), kinase activity of ERK2; cited from earlier work.

For the compound `Nc1n[nH]c2nnc(-c3c(-c4ccccc4)nn4ccccc34)cc12` [FR180204, 5-(2-phenylpyrazolo[1,5-a]pyridin-3-yl)-1H-pyrazolo[3,4-c]pyridazin-3-amine], the Ki is 140 nM.
